# Earlier results, collected in patent publication US10729694B2 (AI Therapeutics, Inc., priority 2015, dated 2020).
# pIC50: −log10 of the molar value.
# System: adipocytes
# Conditions: cited from earlier work
compound,measurement,value
"Nc1ccc(C(=O)Nc2cccc(-c3nc(N4CCOCC4)c4oc5ncccc5c4n3)c2)cn1 [YM-201636, 6-amino-N-(3-(4-morpholinopyrido[3′,2′:4,5]furo[3,2-d]pyrimidin-2-yl)phenyl)nicotinamide]",pIC50,7.27
